{"sequences": {"note": "Sequences of proteins named here, by UniProt entry; tags and fusion partners are left off. A change or cut given only in a name is not applied to a line headed by its entry.", "UniProt Q14123, whole entry, looked up": "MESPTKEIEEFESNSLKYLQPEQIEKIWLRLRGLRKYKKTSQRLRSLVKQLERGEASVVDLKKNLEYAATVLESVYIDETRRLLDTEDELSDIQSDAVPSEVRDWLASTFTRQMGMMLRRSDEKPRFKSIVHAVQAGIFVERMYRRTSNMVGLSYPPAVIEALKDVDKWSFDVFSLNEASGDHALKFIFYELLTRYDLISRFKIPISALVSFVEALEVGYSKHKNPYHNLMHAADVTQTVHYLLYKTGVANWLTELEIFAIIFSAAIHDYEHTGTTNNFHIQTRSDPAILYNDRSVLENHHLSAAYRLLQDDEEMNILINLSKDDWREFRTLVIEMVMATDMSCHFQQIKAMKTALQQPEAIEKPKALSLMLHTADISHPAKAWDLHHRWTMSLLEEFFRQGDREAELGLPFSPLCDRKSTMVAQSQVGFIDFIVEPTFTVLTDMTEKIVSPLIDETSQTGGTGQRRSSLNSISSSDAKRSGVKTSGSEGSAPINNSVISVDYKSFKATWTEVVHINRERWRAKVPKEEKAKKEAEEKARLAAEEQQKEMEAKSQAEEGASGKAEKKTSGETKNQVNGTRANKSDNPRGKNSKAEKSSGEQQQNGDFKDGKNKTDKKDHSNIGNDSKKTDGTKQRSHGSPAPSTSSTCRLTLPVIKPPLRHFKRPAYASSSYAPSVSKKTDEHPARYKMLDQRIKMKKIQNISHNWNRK", "UniProt Q13370": "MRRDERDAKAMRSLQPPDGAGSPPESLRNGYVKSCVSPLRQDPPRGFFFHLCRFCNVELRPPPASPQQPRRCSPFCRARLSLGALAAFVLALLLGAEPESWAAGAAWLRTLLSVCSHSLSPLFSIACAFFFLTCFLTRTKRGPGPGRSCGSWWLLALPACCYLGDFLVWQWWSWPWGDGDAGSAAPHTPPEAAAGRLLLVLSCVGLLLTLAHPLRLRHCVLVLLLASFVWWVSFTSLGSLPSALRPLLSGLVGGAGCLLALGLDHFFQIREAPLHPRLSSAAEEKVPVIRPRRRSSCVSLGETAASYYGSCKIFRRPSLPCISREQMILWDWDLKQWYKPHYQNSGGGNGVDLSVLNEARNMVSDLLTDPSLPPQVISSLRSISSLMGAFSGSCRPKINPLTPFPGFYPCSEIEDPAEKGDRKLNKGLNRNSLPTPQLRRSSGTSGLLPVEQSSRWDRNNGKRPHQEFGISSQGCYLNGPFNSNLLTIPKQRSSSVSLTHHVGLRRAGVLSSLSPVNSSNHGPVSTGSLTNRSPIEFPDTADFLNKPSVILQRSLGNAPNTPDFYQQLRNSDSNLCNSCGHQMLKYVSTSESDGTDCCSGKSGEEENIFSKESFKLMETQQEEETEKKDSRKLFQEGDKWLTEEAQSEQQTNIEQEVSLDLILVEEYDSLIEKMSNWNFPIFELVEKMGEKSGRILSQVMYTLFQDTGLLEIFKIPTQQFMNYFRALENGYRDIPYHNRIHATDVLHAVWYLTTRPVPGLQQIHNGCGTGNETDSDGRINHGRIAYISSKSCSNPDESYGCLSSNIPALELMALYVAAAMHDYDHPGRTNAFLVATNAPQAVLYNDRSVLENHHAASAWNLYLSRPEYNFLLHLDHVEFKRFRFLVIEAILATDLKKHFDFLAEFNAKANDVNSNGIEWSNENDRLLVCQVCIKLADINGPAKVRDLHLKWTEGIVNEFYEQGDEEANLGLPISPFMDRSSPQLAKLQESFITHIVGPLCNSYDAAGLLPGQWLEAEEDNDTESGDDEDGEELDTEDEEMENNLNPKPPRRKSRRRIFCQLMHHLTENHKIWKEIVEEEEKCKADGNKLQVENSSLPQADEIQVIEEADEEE", "UniProt Q13946": "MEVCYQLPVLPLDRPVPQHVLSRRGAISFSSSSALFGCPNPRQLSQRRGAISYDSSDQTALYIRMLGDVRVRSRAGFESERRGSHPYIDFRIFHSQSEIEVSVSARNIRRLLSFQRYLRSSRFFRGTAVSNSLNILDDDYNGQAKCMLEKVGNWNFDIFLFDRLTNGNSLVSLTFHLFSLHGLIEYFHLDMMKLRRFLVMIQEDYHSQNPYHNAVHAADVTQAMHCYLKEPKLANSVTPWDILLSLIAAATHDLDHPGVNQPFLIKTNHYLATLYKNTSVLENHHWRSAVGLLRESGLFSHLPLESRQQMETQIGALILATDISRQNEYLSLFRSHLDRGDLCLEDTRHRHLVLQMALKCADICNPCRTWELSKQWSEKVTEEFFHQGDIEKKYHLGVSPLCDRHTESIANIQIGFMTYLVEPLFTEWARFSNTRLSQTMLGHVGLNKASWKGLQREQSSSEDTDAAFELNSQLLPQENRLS", "UniProt Q9Y233": "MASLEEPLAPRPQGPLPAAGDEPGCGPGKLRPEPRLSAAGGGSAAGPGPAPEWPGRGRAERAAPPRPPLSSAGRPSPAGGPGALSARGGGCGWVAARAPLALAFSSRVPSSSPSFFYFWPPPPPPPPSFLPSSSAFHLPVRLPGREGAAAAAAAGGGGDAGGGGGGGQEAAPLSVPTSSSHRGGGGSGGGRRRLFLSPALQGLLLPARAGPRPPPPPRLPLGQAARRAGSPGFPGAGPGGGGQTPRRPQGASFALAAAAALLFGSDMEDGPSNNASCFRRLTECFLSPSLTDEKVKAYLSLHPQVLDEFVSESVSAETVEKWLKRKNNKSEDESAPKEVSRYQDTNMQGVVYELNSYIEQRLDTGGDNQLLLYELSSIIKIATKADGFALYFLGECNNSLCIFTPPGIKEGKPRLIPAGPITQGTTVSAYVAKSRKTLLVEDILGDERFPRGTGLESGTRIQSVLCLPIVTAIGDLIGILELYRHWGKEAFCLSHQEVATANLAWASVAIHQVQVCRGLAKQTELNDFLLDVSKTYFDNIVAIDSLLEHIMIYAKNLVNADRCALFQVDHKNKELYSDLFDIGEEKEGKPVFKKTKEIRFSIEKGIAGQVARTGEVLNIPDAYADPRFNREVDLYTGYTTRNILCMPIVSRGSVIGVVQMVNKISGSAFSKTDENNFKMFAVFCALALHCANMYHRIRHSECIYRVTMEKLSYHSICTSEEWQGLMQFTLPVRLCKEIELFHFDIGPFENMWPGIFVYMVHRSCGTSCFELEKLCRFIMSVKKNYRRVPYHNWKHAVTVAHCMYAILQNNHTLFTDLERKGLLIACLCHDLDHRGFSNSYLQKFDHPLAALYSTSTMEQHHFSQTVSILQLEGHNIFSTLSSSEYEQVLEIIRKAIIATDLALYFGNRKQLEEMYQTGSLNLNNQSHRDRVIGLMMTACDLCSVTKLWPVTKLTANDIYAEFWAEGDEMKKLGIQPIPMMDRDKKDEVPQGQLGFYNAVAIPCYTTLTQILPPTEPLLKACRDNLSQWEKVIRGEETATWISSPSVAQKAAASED"}, "source": "patent US20240254082A1", "about": "“Substituted Isoindoline-1, 3-diketone PDE4 Inhibitor and Pharmaceutical Application Thereof” (SUZHOU INTRAGRAND PHARMA CO., LTD, priority 2021, published 2024)", "type_in_all_cases": "biochemical", "key": {"PDE1C": {"biological_target": "PDE1C (Homo sapiens, UniProt Q14123)", "assay": "Selective inhibitory activity assay, PDE1C", "protocol": "(§1) 7. Selective inhibitory activity assay for PDE1, 2, 3, 5, 7, 10 and 11 enzymes\n(§2) The selective specificity of compounds for PDE4 was assessed by assaying single concentrations of the compounds. For example, PDE1a enzyme, PDElc enzyme, PDE2a enzyme, PDE3a enzyme, PDE3b enzyme, PDE5a1 enzyme, PDE7a enzyme, PDE7b enzyme, PDE10a1 enzyme and PDE11a4 enzyme were tested. The selective inhibitory effects of different compounds on the enzymatic activities of PDEIC, PDE2A, PDE3B, PDE5A1, PDE7A, and PDE10A1 at concentrations of 10 μM and 1 μM, respectively, are shown in the table below: […]"}, "PDE2A": {"biological_target": "PDE2A (Homo sapiens, UniProt O00408)", "assay": "Selective inhibitory activity assay, PDE2A", "protocol": "as §1, §2"}, "PDE3B": {"biological_target": "PDE3B (Homo sapiens, UniProt Q13370)", "assay": "Selective inhibitory activity assay, PDE3B", "protocol": "as §1, §2"}, "PDE5A1": {"biological_target": "PDE5A1 (Homo sapiens, UniProt O76074)", "assay": "Selective inhibitory activity assay, PDE5A1", "protocol": "as §1, §2"}, "PDE7A": {"biological_target": "PDE7A (Homo sapiens, UniProt Q13946)", "assay": "Selective inhibitory activity assay, PDE7A", "protocol": "as §1, §2"}, "PDE10A1": {"biological_target": "PDE10A1 (Homo sapiens, UniProt Q9Y233)", "assay": "Selective inhibitory activity assay, PDE10A1", "protocol": "as §1, §2"}}}
{"smiles": "CCCCCc1ccc(NC(=O)C2CC2)c2c1C(=O)N([C@H](CS(C)(=O)=O)c1ccc(OC)c(OCC)c1)C2=O", "note": "[Example 6, (S)-2-[1-(3-ethoxy-4-methoxyphenyl)-2-alkylsulfonylethyl]-4-cyclopropanamido-7-pentyl isoindoline-1,3-diketone]", "values": [{"measurement": "Inhibition rate (%) of PDE1C", "setting": "PDE1C; 1 μM", "value": 0, "unit": "%"}, {"measurement": "Inhibition rate (%) of PDE1C", "setting": "PDE1C; 10 μM", "value": 17.97, "unit": "%"}, {"measurement": "Inhibition rate (%) of PDE2A", "setting": "PDE2A; 1 μM", "value": 0, "unit": "%"}, {"measurement": "Inhibition rate (%) of PDE2A", "setting": "PDE2A; 10 μM", "value": 3.41, "unit": "%"}, {"measurement": "Inhibition rate (%) of PDE3B", "setting": "PDE3B; 1 μM", "value": 0.94, "unit": "%"}, {"measurement": "Inhibition rate (%) of PDE3B", "setting": "PDE3B; 10 μM", "value": "−0.44", "unit": "%"}, {"measurement": "Inhibition rate (%) of PDE5A1", "setting": "PDE5A1; 1 μM", "value": 34.22, "unit": "%"}, {"measurement": "Inhibition rate (%) of PDE5A1", "setting": "PDE5A1; 10 μM", "value": 34.00, "unit": "%"}, {"measurement": "Inhibition rate (%) of PDE7A", "setting": "PDE7A; 1 μM", "value": 0, "unit": "%"}, {"measurement": "Inhibition rate (%) of PDE7A", "setting": "PDE7A; 10 μM", "value": 13.83, "unit": "%"}, {"measurement": "Inhibition rate (%) of PDE10A1", "setting": "PDE10A1; 1 μM", "value": 4.84, "unit": "%"}, {"measurement": "Inhibition rate (%) of PDE10A1", "setting": "PDE10A1; 10 μM", "value": "−16.18", "unit": "%"}]}
